Values of other authors in US20070014866A1, “Composition for improving the efficacy and reducing the side effects of omega 3 fatty acids, fish oils and cardiovascular and diabetic treatments” (priority 2005, published 2007).

Assays:
[1] = 900 mg pantethine daily, preferably 300 mg three times daily; versus placebo; diabetic and non-diabetic individuals
[2] = human, in vivo

CC(C)(CO)[C@@H](O)C(=O)NCCC(=O)NCCSSCCNC(=O)CCNC(=O)[C@H](O)C(C)(C)CO [pantethine, Pantethine]
lowering total cholesterol levels in the blood [1]: significantly more effective than placebo | lowering trigylceride levels in the blood [1]: significantly more effective than placebo | adverse side effects [2]: without adverse side effects | cholesterol and triglyceride levels [2]: lower cholesterol and triglyceride levels
